# Results: patent US11718635B2, “Iron bis(imino) aryl catalysts and methods thereof” (ExxonMobil Chemical Patents Inc., priority 2019, dated 2023)
# Assay: Solubility tests in anhydrous hexane (stirred 30 minutes at room temperature, filtered, solvent removed)
# Type: physicochemical
# Conditions: filtered through 4-5.5 micron frit
# Procedure: Into a vial was placed 0.097 g of 2,6-bis-[1-(2-chloro-4,6-dimethylphenylimino)ethyl]pyridine iron-silylneopentyl with 2.007 g of anhydrous hexane. This solution was stirred for 30 minutes at room temperature. The contents were then filtered through a buchner filter funnel with a frit having a 4-5.5 micron size. The solvent was then removed en vacuo.
# Comparitive: Into a vial was placed 0.077 g 2,6-bis-[1-(2-chloro-4,6-dimethylphenylimino)ethyl]pyridine iron dichloride with 2.008 g of anhydrous hexane (Sigma Aldrich). This solution was stirred for 30 minutes at room temperature. The contents were then filtered through a buchner filter funnel with a frit having a 4-5.5 micron size. The solvent was then removed en vacuo.
substance,measurement,value
"2,6-bis-[1-(2-chloro-4,6-dimethylphenylimino)ethyl]pyridine iron-silylneopentyl [Catalyst 2]",calculated solubility,5.0 g/g hexane
